{
  "sequences": {"note": "By UniProt entry, the sequences of proteins in these tests, tags left out. Residues count along the entry.", "UniProt C7FF04, 2-392": "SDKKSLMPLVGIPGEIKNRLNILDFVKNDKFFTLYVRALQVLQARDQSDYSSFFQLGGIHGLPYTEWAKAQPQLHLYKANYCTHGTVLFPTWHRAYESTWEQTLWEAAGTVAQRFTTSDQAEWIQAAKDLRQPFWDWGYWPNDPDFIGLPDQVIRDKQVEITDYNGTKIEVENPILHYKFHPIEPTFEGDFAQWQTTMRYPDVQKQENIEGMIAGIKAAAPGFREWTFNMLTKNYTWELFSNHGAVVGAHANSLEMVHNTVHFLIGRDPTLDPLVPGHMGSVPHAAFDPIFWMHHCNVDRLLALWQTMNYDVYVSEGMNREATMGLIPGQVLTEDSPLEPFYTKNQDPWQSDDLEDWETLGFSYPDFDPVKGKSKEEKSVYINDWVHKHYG", "UniProt C7FF04, 1-392": "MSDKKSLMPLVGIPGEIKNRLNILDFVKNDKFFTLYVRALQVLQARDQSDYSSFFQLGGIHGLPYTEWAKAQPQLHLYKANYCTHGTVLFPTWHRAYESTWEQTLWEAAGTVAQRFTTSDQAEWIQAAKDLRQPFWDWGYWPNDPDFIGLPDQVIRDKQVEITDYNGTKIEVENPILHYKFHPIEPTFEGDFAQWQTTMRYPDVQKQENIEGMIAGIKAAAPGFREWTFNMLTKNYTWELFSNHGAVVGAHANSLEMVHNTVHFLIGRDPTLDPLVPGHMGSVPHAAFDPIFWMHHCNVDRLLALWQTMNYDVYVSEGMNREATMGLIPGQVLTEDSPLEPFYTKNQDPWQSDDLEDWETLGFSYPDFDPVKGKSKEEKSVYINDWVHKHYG"},
  "source": "paper PMC10604187",
  "about": "(Antioxidants, 2023)",
  "key": {"mushroom tyrosinase [1]": {"biological_target": "T1, mushroom tyrosinase (Agaricus bisporus, UniProt C7FF04)", "experiment": "Mushroom tyrosinase inhibitory assay, monophenolase activity (L-tyrosine substrate)", "format": "biochemical", "conditions": "vs kojic acid", "method": "The effect of the analogs on enzyme inhibition was investigated in the presence of L-dopa and L-tyrosine. […] After incubating the assay mixture for 0.5 h at 37 °C, the amounts of dopachrome produced during the incubation time were evaluated by measuring the absorbances of each well at 475 nm using a VersaMax^TM microplate reader (Molecular Devices, Sunnyvale, CA, USA)."}, "mushroom tyrosinase [2]": {"biological_target": "T1, mushroom tyrosinase", "experiment": "biochemical", "method": "Briefly, a dimethyl sulfoxide (DMSO) solution (10 µL) containing test analogs (final concentrations: 0, 5, 10, and 20 nM) was added to the wells of a 96-well plate containing mushroom tyrosinase (20 µL, 200 units/mL) and an aqueous solution (170 µL) consisting of L-dopa (final concentrations: 0.125, 0.25, 0.5, 1, 2, 4, and 8 mM) and phosphate buffer (final concentration: 14.7 mM, pH 6.5). The increase in the absorbance at 475 nm (ΔOD475/min) was measured using a VersaMax^TM microplate reader to determine the initial rate of dopachrome generation. The maximal velocity (Vmax) was determined from the y-axis intercept values of the Lineweaver–Burk plots obtained at seven different L-dopa concentrations. Dixon plots were obtained from Lineweaver–Burk plots for inhibitors by plotting the reciprocal of the reaction velocity against the inhibitor concentration."}},
  "data": [
    {"smiles": "Sc1nc2cc(Cl)ccc2[nH]1", "note": "[analog 4, 5-Chloro-1H-benzo[d]imidazole-2-thiol]", "values": [
      {"measurement": "fold more potent than kojic acid, monophenolase activity", "setting": "mushroom tyrosinase [1]", "value": 280, "unit": "fold"},
      {"measurement": "Ki", "setting": "mushroom tyrosinase [2]", "value": 9.4, "unit": "nM"},
      {"measurement": "mode of tyrosinase inhibition", "setting": "mushroom tyrosinase [2]; Lineweaver–Burk plots, L-dopa", "value": "mixed-type"}
    ]}
  ]
}
